Experiment [1] addresses Opioid receptors; mu & delta (Homo sapiens) (UniProt P41143+P35372). Briefly: Ratio of binding affinities (Mu/Delta).
Experiment [2] has as its target Mu-type opioid receptor (Cavia porcellus) (UniProt P97266). In words: [35S]GTP-gamma-S, induced maximal stimulation ( E max )against Mu opioid receptor in guinea pig caudate membranes in unblocked condition.
For experiment [3] the target is unchanged. In words: [35S]GTP-gamma-S, induced maximal stimulation ( E max ) against Mu opioid receptor in guinea pig caudate membranes blocked with 6000 nM CTAP.
Experiment [4] has as its target Kappa-type opioid receptor (Cavia porcellus) (UniProt P41144). Briefly: [35S]GTP-gamma-S, induced maximal stimulation ( E max )against Kappa opioid receptor in guinea pig caudate membranes blocked with 6 nM nor-BNI.

The chains behind the UniProt entries cited, without tags or fusion partners.
UniProt P97266, whole entry: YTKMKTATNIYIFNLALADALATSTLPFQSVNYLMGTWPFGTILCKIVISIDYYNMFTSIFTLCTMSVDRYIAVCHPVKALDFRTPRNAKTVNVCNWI
UniProt P41144, whole entry: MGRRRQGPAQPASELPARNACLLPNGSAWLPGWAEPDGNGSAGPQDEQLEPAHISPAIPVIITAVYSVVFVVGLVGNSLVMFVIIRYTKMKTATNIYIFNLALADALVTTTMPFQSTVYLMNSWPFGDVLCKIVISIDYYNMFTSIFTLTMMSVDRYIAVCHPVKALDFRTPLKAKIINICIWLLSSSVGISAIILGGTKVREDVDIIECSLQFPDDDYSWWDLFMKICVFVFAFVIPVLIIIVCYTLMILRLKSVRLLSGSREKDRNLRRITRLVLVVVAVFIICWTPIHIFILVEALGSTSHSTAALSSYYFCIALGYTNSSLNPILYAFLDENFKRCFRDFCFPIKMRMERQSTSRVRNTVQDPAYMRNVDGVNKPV

Each structure is given as a SMILES string.

`C=CCN1CC[C@H](N(c2ccccc2)c2ccc(C(=O)N(CC)CC)cc2)[C@@H](C)C1`: the Ratio in experiment [1] is 13.

On to `C=CCN1CC[C@H](N(c2ccccc2)c2ccc(C(=O)N(CC)CC)cc2)[C@H](C)C1`, for which the Ratio in experiment [1] was determined as 102. With `C=CCN1CC[C@H](N(c2ccccc2)c2ccc(C(=O)N(CC)CC)cc2)C(C)C1` (stereo not given in full), the Emax in experiment [2] worked out at 63; in experiment [3], 55; in experiment [4] it was 60.

The values above are taken from ChEMBL document CHEMBL1131860.
